This is a sample that favours compounds with a hit; in the whole collection about 4.2% have one here.
ALR H2O2 inh = inhibitors of human sulfhydryl oxidase ALR | 290,000 compounds, 3.8% hits | AID 485317 | inhibition, % (test concentration not listed) | P55789 | purified ALR, DTT oxidation, H2O2 HRP-luminol luminescence;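 active = mean and each replicate at 75% or more; inconclusive = only one of the two met; inactive = neither met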;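 also: stock transfer was 7.5 nL into about 7.5 µL; 0% = neutral wells and 100% = wells with inactivated enzyme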
Yeast UUG start = modulators of yeast start codon fidelity, primary screen, whole organism, S. cerevisiae, single point, plate reader; S. cerevisiae UUG-firefly luciferase reporter, luminescence/redox ratio; activity score, % at 18.7 µM; 0.13% of 350,000 active; AID 602363, 2012;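 active = replicate mean at a twofold rise or more, about +100% in these data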;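 also: firefly luciferase made from a UUG start codon reports start codon fidelity; reporter light over untreated wells divided by growth signal over untreated wells; some hits fall short of that in this replicate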
MC4R barr agon = activates human MC4R beta-arrestin recruitment; P32245; U2OS MC4R beta-arrestin complementation, luminescence; percent of melanotan II response, DMSO zero; activation, % at 8.9 µM; 0.98% of 360,000 active;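 active = activation above a per-plate cutoff, the mean activation of sample wells on that plate plus 3 SD, cut at about 8% in these data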
HDAC3 inh = blocks human histone deacetylase 3 | O15379 | recombinant HDAC3, fluorogenic peptide/trypsin coupled, fluorescence | inhibition, % at 8.3 µM | 0.15% of 320,000 active | AID 2718; in the data active = inhibition above about 26%, passing the limit was not always enough
NALP1 inh = inhibitors of NALP1 inflammasome in yeast | S. cerevisiae NALP1/ASC/caspase-1 growth, X-gal OD620, 72 h | inhibition, % at 10 µM | 0.61% of 280,000 active | AID 2071; in the data active = inhibition mostly above about 24%, no sharp cut-off; inactive = mostly below about 32%
MC4R antagonist = human MC4R antagonism in cAMP assay; P32245; MC4R-expressing cells, MTII-stimulated cAMP, LANCE TR-FRET; inhibition, % at 6.5 µM; 0.48% of 360,000 active; AID 540295;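 active = inhibition above its plate's cutoff, the mean of tested wells on that plate plus 3 SD, cut at about 29% in these data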;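 note: 0% = Melanotan II alone and 100% = Melanotan II plus saturating MCL0020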
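Assay system: U2OS-MC4R stable cell line; Also added: Melanotan II; Technique: Eu-cAMP/anti-cAMP TR-FRET, emission 671 nm; Times: 30-min compound, 1-h challenge, 1-h detection, room temperature.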
* = called active by the depositor; · = not tested or not shown.

SMILES | ALR H2O2 inh | Yeast UUG start | MC4R barr agon | HDAC3 inh | NALP1 inh | MC4R antagonist
CC(=O)c1cc(NC(=O)c2cccc(C(F)(F)F)c2)c(=O)oc1/C=C/N(C)C | -1 | -13 | -1 | -1 | 7 | -2
CC(=O)c1cc(NC(=O)c2ccc(Cl)cc2)c(=O)oc1/C=C/N(C)C | 97* | -12 | 1 | -6 | 38 | 6
Cc1noc(C)c1NC(=O)Nc1ccc2c(c1)CC(=O)N([C@H](C)CO)C[C@H](C)[C@H](CN(C)C(=O)Nc1c(C)noc1C)O2 | · | -8 | · | · | · | ·
CC(=O)N(C)C[C@H]1Oc2cc(C#Cc3cccnc3)ccc2S(=O)(=O)N([C@@H](C)CO)C[C@@H]1C | · | 8 | · | · | · | ·
CC(C)NC(=O)N(C)C[C@H]1Oc2ccc(NC(=O)CCCCCC(=O)Nc3ccccc3N)cc2C(=O)N([C@H](C)CO)C[C@H]1C | · | -1 | · | · | · | ·
Cc1ccc(Cc2c(C)nc3nc(SCC(=O)NCCCN4CCCCCC4)nn3c2C)cc1 | 11 | · | · | 33* | 16 | ·
C[C@@H]1CN([C@H](C)CO)S(=O)(=O)c2ccc(C#CC3CCCCC3)cc2O[C@@H]1CN(C)C | · | -11 | · | · | · | ·
Cc1ccc(S(=O)(=O)N(C)C[C@@H]2OCCCC[C@@H](C)Oc3ccc(N(C)C)cc3C(=O)N([C@H](C)CO)C[C@H]2C)cc1 | · | 47 | · | · | · | ·
FC(F)(F)c1cccc(Sc2cc(C(F)(F)F)nc(-c3ccccn3)n2)c1 | 13 | -6 | 9.1* | 3 | 18 | 12
O=C(O)CSc1cc(C(F)(F)F)nc(-c2ccccn2)n1 | 4 | -26 | -1 | 2 | -13 | -3
COc1ccc(OCC(=O)Sc2ccc(C)cc2)cc1 | 98* | -16 | 1 | 7 | 1 | 7
COc1ccc(OC(=O)COc2ccc(C)cc2)cc1 | 6 | 4 | -2 | 2 | 5 | 1
Cc1ccc2nc(N(CCN3CCOCC3)C(=O)CCS(=O)(=O)c3ccccc3)sc2c1 | 9 | 3 | -1 | 1 | · | 17
Cc1ccc(S(=O)(=O)CCC(=O)N(CCCN2CCOCC2)c2nc3ccccc3s2)cc1 | 98* | -19 | 0 | 0 | · | 25
O=C(CCS(=O)(=O)c1ccccc1)N(CCCN1CCOCC1)c1nc2ccccc2s1 | 98* | · | -5 | 2 | · | 16
CCCC(=O)N(CCN1CCOCC1)c1nc2cc(C)c(C)cc2s1 | 95* | -13 | -2 | -1 | 13 | 5
CCCC#Cc1cnc2c(c1)C(=O)N([C@@H](C)CO)C[C@@H](C)[C@@H](CN(C)C(=O)CN1CCOCC1)O2 | · | 0 | · | · | · | ·
O=C(O)c1ccccc1C(=O)Nc1ccc(Nc2ccc([N+](=O)[O-])cc2[N+](=O)[O-])cc1 | 96* | 1 | 0 | 2 | 12 | -9
NC(=O)c1ccc(Nc2ccc([N+](=O)[O-])cc2[N+](=O)[O-])cc1 | -6 | · | 0 | 5 | 12 | 1
O=[N+]([O-])c1ccc(Nc2ccccn2)c([N+](=O)[O-])c1 | 0 | -5 | -2 | 2 | 26* | -2
Nc1ccc(Nc2ccc([N+](=O)[O-])cc2[N+](=O)[O-])cc1 | 98* | · | 0 | 2 | -2 | -1
COCC(=O)N(C)C[C@H]1Oc2cc(-c3ccc(C)cc3)ccc2S(=O)(=O)N([C@H](C)CO)C[C@@H]1C | · | 4 | · | · | · | ·
COC(=O)CC1SC(=O)NC1=Nc1ccc(OC)cc1 (stereo unspecified) | -7 | -9 | 0 | 1 | 14 | 1
COC(=O)CC1SC(=O)NC1=Nc1ccc(O)cc1 (stereo unspecified) | 96* | -5 | 1 | 4 | -16 | -2
C[C@@H]1CCCCO[C@@H](CN(C)S(=O)(=O)c2ccc(F)cc2)[C@H](C)CN([C@H](C)CO)C(=O)c2cc(NC(=O)Nc3ccc4c(c3)OCO4)ccc2O1 | · | -4 | · | · | · | ·
(list continues)
SMILES | ALR H2O2 inh | Yeast UUG start | MC4R barr agon | HDAC3 inh | NALP1 inh | MC4R antagonist
COc1ccc(S(=O)(=O)Nc2ccc3c(c2)CC(=O)N([C@H](C)CO)C[C@H](C)[C@@H](CN(C)C(=O)NC2CCCCC2)O3)cc1 | · | 6 | · | · | · | ·
CCOC(=O)C(NC(=O)CCl)(Nc1sc(C)c(CC)c1C#N)C(F)(F)F (stereo unspecified) | 3 | · | 2 | 9 | 35 | 4
CCOC(=O)C(NC(=O)N(C)C)(Nc1sc(C)c(CC)c1C#N)C(F)(F)F (stereo unspecified) | 28 | -1 | -1 | 32* | 30 | 5
Cc1ccc(C2c3[nH]c4ccccc4c3C[C@H]3C(=O)N(c4ccccc4C(=O)N4CCC[C@H]4C(=O)O)C(=O)N23)cc1 (stereo partly specified) | 98* | -5 | -3 | -2 | 7 | 8
O=C(O)[C@H]1CCCN1C(=O)c1ccccc1N1C(=O)[C@@H]2Cc3c([nH]c4ccccc34)C(c3cccc(Cl)c3)N2C1=O (stereo partly specified) | · | 11 | 0 | 2 | -20 | 1
CC(C)c1ccc(C2c3[nH]c4ccccc4c3C[C@H]3C(=O)N(c4ccccc4C(=O)N4CCC[C@@H]4C(=O)O)C(=O)N23)cc1 (stereo partly specified) | 98* | -7 | 0 | 4 | 32 | 4
COC(=O)c1ccc(C2c3[nH]c4ccccc4c3C[C@H]3C(=O)N(C4CC4)CC(=O)N23)cc1 (stereo partly specified) | -1 | · | 1 | -2 | -10 | 11
CC(C)c1ccc(C2c3[nH]c4ccccc4c3C[C@H]3C(=O)N(c4ccccc4C(=O)N4CCC(C(=O)O)CC4)C(=O)N23)cc1 (stereo partly specified) | 98* | -3 | 0 | -4 | 15 | 1
O=C1[C@@H]2Cc3c([nH]c4ccccc34)[C@@H](c3ccccc3)N2C(=O)[C@@H]2Cc3c([nH]c4ccccc34)[C@@H](c3ccccc3)N12 | · | · | · | · | 14 | ·
CC(=O)N(C)C[C@@H]1Oc2ncc(C#Cc3ccncc3)cc2C(=O)N([C@H](C)CO)C[C@@H]1C | · | 4 | · | · | · | ·
CC(C)NC(=O)N[C@H]1CC[C@@H](CCNS(=O)(=O)c2ccc(F)cc2)O[C@H]1CO | · | 6 | · | · | · | ·
CN(C)CC#Cc1ccc([C@@H]2[C@H](CO)N3CCCCN(CC4CC4)C[C@@H]23)cc1 | · | 30 | · | · | · | ·
C[C@H](CO)N1C[C@H](C)[C@H](CN(C)C(=O)NC2CCCCC2)OCCCC[C@H](C)Oc2ccc(NS(=O)(=O)c3ccccc3)cc2C1=O | · | 0 | · | · | · | ·
CO[C@H]1CN(C)C(=O)c2ccc(NC(=O)C3CC3)cc2OC[C@@H](C)N(CC2CCOCC2)C[C@@H]1C | · | 5 | · | · | · | ·
O=C(Nc1ccc(-n2ccc(C(F)(F)F)n2)cc1)Nc1cccc(Cl)c1 | -23 | · | 6 | 11 | 23 | 0
Cc1cc(C)cc(NC(=O)Nc2ccc(-n3ccc(C(F)(F)F)n3)cc2)c1 | -13 | -7 | 8.8* | 5 | · | 14
COc1ccc(OC)c(-c2csc(NC(=O)CSCC(=O)Nc3cc(C)on3)n2)c1 | · | -5 | -1 | -3 | · | 3

An excerpt from above in order of their number in ALR H2O2 inh, descending.
Structure	ALR H2O2 inh
O=C(CCS(=O)(=O)c1ccccc1)N(CCCN1CCOCC1)c1nc2ccccc2s1	98*
CC(=O)c1cc(NC(=O)c2ccc(Cl)cc2)c(=O)oc1/C=C/N(C)C	97*
COC(=O)CC1SC(=O)NC1=Nc1ccc(O)cc1 (stereo unspecified)	96*
O=[N+]([O-])c1ccc(Nc2ccccn2)c([N+](=O)[O-])c1	0

A second format for 2 compounds above:
CC(C)c1ccc(C2c3[nH]c4ccccc4c3C[C@H]3C(=O)N(c4ccccc4C(=O)N4CCC[C@@H]4C(=O)O)C(=O)N23)cc1 (stereo partly specified)
- ALR H2O2 inh: 98*
- Yeast UUG start: -7
- MC4R barr agon: 0
- HDAC3 inh: 4
- NALP1 inh: 32
- MC4R antagonist: 4
COC(=O)c1ccc(C2c3[nH]c4ccccc4c3C[C@H]3C(=O)N(C4CC4)CC(=O)N23)cc1 (stereo partly specified)
- ALR H2O2 inh: -1
- Yeast UUG start: ·
- MC4R barr agon: 1
- HDAC3 inh: -2
- NALP1 inh: -10
- MC4R antagonist: 11
